Measurements taken from patent US6506576B2 (priority 2001, dated 2003).

Tested on: non-neuronal cells in cerebellar cultures
Assay: Inhibition of non-neuronal cell proliferation in primary cerebellar cultures (visual inspection, staining)
Type: cell-based, rat
Conditions: 10 μM AraC, NB-B27 or GCSF
Protocol: To inhibit proliferation of non-neuronal cells, a final concentration of 10 μM AraC was added to cultures after 24 hour in vitro.
Based on the calculated cell numbers, cerebellar cells were serially diluted in an appropriate volume of culture media and seeded into flat-bottom 96-well tissue culture plates pre-coated with poly-L-lysine (Becton Dickinson, Bedford, Mass.). The numbers of cerebellar cells seeded ranged from 6,250 to 400,000 cells per well (0.32 cm^2) in a final volume of 200 μl. Cultures were maintained in a humidified incubator in 5% CO2 at 37° C. After 24 hours in culture, a final concentration of 10 μM cytosine β-D-arabinofuranoside (AraC; Sigma) was added to each well to inhibit proliferation of non-neuronal cells.
Cerebellar cells were prepared as described above, seeded at 5×10^5 cells per well (0.32 cm^2) poly-L-lysine coated 4-well chamber slides, and cultured without added serum in GCSF or NB-B27 supplement with or without 10 μM AraC. After 7-30 day in vitro, cultures were washed 3 times with phosphate buffered saline (PBS) and fixed for 20-30 minutes with 4% paraformaldehyde in 0.1M sodium phosphate buffer (pH 7.4; PB). Following fixation, cells were washed 3 times with PBS, and either stained with 1% methylene blue (Sigma) in deionized water for 5 minutes and destained with deionized water or permeablized for immunostaining with 0.2% Triton X-100 in PBS. […]

## cytosine β-D-arabinofuranoside [AraC]
  loss of granule cell viability in presence of anti-mitotic agent: without a detectable loss of granule cell viability
